Measurements reported in patent US9694016B2 (Novartis AG, priority 2013, dated 2017).

Chains of the proteins cited; added tags and fusions are not shown.
UniProt P04049, whole entry Y340E/Y341E: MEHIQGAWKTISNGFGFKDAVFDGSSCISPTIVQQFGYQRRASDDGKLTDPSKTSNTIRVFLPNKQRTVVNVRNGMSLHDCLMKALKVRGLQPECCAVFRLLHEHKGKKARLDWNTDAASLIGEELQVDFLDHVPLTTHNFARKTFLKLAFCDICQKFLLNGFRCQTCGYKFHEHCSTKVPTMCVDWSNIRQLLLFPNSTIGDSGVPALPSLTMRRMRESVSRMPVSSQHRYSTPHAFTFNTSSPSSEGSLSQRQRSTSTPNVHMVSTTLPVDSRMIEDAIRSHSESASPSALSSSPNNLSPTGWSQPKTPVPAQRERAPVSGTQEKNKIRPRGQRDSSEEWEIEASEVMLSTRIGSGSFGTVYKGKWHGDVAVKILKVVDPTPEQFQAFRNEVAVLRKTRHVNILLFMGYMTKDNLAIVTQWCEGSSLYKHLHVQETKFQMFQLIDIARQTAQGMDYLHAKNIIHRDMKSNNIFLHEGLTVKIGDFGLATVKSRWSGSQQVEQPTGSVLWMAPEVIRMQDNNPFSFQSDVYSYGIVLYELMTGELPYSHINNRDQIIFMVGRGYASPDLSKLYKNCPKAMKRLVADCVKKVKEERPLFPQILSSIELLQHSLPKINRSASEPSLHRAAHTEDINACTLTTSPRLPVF

These compounds were tested against C-Raf FL (full-length C-Raf protein, Y340E and Y341E activating mutations) (Homo sapiens (Human), UniProt P04049, Y340E/Y341E). Details: AlphaScreen, 60 min pre-incubation, reaction 1 hour at room temperature; read-out: c-Raf FL IC-50.
Assay type: biochemical

Structure (SMILES)	IC50 [nM]
Cc1ncc(NC(=O)c2ccnc(C(C)(C)O)c2)cc1-c1cnc(OC(F)F)c(N2CCOCC2)c1 [Example 979, N-(6′-(difluoromethoxy)-2-methyl-5′-morpholino-[3,3′-bipyridin]-5-yl)-2-(2-hydroxypropan-2-yl)isonicotinamide]	6.24
Cc1ncc(NC(=O)c2cc(C(C)(C)C#N)ccn2)cc1-c1cnc(OC(F)F)c(N2CCOCC2)c1 [Example 981, 4-(2-cyanopropan-2-yl)-N-(6′-(difluoromethoxy)-2-methyl-5′-morpholino-[3,3′-bipyridin]-5-yl)picolinamide]	3.17
Cc1ncc(NC(=O)c2ccnc(C(F)F)c2)cc1-c1cnc(OC(F)F)c(N2CCOCC2)c1 [Example 982, N-(6′-(difluoromethoxy)-2-methyl-5′-morpholino-[3,3′-bipyridin]-5-yl)-2-(difluoromethyl)isonicotinamide]	1.1
CCC(F)(F)c1cc(C(=O)Nc2cnc(C)c(-c3cnc(OC(F)F)c(N4CCOCC4)c3)c2)ccn1 [Example 983, N-(6′-(difluoromethoxy)-2-methyl-5-morpholino-[3,3′-bipyridin]-5-yl)-2-(1,1-difluoropropyl)isonicotinamide]	1.43
CNC(=O)c1ncc(-c2cc(NC(=O)c3ccnc(C(C)(F)F)c3)ccc2C)cc1N1CCOCC1 [Example 987, 5-(5-(2-(1,1-difluoroethyl)isonicotinamido)-2-methylphenyl)-N-methyl-3-morpholinopicolinamide]	0.8
Cc1ncc(NC(=O)c2ccnc(C(C)(C)F)c2)cc1-c1cnc(OC[C@H](C)O)c(N2CCOCC2)c1 [Example 990, (S)-2-(2-fluoropropan-2-yl)-N-(6′-(2-hydroxypropoxy)-2-methyl-5-morpholino-[3,3′-bipyridin]-5-yl)isonicotinamide]	2
Cc1ncc(NC(=O)c2cccc(C(F)(F)F)c2)cc1-c1cnc(OCC2COCCO2)c(N2CCOCC2)c1 (centres unmarked) [Example 992]	0.97

Now from value to compound:

IC50 [nM]	Structure (SMILES)
0.74	Cc1ncc(NC(=O)c2ccnc(C(F)(F)F)c2)cc1-c1cnc(OC(F)F)c(N2CCOCC2)c1 [Example 978]
0.78	Cc1ncc(NC(=O)c2ccnc(C(C)(F)F)c2)cc1-c1cnc(OC(F)F)c(N2CCOCC2)c1 [Example 980, 2-(1,1-difluoroethyl)-N-(6′-(difluoromethoxy)-2-methyl-5′-morpholino-[3,3′-bipyridin]-5-yl)isonicotinamide]
0.51	Cc1ncc(NC(=O)c2cccc(C(F)(F)F)c2)cc1-c1cnc(OC[C@@H](C)O)c(N2CCOCC2)c1 [Example 984, (R)—N-(6′-(2-hydroxypropoxy)-2-methyl-5′-morpholino-[3,3′-bipyridin]-5-yl)-3-(trifluoromethyl)benzamide]
0.6	Cc1ncc(NC(=O)c2cccc(C(F)(F)F)c2)cc1-c1cnc(O[C@@H](C)CO)c(N2CCOCC2)c1 [Example 985, (S)—N-(6′-((1-hydroxypropan-2-yl)oxy)-2-methyl-5′-morpholino-[3,3′-bipyridin]-5-yl)-3-(trifluoromethyl)benzamide]
0.28	Cc1ncc(NC(=O)c2cccc(C(F)(F)F)c2)cc1-c1cnc(N(C)CCO)c(N2CCOCC2)c1 [Example 986, N-(6′-((2-hydroxyethyl)(methyl)amino)-2-methyl-5′-morpholino-[3,3′-bipyridin]-5-yl)-3-(trifluoromethyl)benzamide]
0.56	Cc1ccc(NC(=O)c2ccnc(S(C)(=O)=O)c2)cc1-c1cnc(OC[C@H](C)O)c(N2CCOCC2)c1 [Example 989, (S)—N-(3-(6-(2-hydroxypropoxy)-5-morpholinopyridin-3-yl)-4-methylphenyl)-2-(methylsulfonyl)isonicotinamide]
0.76	Cc1ccc(NC(=O)c2ccnc(C(F)(F)F)c2)cc1-c1cc(NC[C@@H](C)O)nc(N2CCOCC2)c1 [Example 991, (R)—N-(3-(2-((2-hydroxypropyl)amino)-6-morpholinopyridin-4-yl)-4-methylphenyl)-2-(trifluoromethyl)isonicotinamide]
